Tests used:
human cathepsin S = human cathepsin S (Homo sapiens, UniProt P25774); assay: Cathepsin S Ki determination; details: read-out: Ki Cat. S; baculovirus-expressed human cathepsin S, boc-Val-Leu-Lys-AMC substrate, pH 6.5
cathepsin K = cathepsin K (Homo sapiens, UniProt P43235); assay: Determination of cathepsin K proteolytic catalytic activity (Ki); details: read-out: Ki Cat. K; human recombinant enzyme, H-D-Ala-Leu-Lys-AMC substrate
human cathepsin L = human cathepsin L (Homo sapiens, UniProt P07711); assay: Cathepsin L Ki; details: read-out: Ki Cat. L, H-D-Val-Leu-Lys-AMC substrate, pH 5.5

Protein sequences, listed by entry. Tags and fused reporters are not part of them. Residues count along the entry.
UniProt P25774, 115-331 limits assumed: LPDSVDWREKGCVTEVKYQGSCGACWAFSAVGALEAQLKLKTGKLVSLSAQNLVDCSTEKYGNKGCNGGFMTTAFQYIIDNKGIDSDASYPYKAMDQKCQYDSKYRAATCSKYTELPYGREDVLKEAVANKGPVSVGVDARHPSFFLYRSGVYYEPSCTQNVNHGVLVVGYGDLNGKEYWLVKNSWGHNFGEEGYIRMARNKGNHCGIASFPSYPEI
UniProt P43235, 115-329 limits assumed: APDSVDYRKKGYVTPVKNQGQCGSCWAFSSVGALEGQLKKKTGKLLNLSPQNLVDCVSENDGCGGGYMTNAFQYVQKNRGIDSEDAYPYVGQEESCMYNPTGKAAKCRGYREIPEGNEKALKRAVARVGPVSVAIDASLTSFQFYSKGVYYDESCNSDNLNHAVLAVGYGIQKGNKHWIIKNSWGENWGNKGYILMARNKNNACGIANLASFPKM
UniProt P07711, 114-333 limits assumed: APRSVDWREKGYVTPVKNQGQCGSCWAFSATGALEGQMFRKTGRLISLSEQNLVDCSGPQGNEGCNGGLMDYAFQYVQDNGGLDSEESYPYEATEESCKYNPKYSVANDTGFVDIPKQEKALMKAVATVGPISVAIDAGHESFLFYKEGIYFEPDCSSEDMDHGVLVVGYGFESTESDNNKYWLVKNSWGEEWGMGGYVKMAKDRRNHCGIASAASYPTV

Compound COC(=O)N[C@@H](CC1(F)CCCC1)C(=O)NC1(C(=O)C(=O)Nc2ccn(C)n2)CCC1 has a Ki (human cathepsin S) of 0.0026 µM, a Ki (cathepsin K) of 0.28 µM and a Ki (human cathepsin L) of 2 µM.

From patent US8815809B2, “Cysteine protease inhibitors” (Medivir UK Ltd, priority 2009, dated 2014)
